Here are results for 3 compounds from patent publication US9901582B2, “Polymorphisms in ABCB1 associated with a lack of clinical response to medicaments” (Max-Planck-Gesellschaft zur Förderung der Wisenschaften e. …, priority 2007, dated 2018).

Amino acid sequences for entries named in this document (tags omitted).
UniProt P08183, whole entry: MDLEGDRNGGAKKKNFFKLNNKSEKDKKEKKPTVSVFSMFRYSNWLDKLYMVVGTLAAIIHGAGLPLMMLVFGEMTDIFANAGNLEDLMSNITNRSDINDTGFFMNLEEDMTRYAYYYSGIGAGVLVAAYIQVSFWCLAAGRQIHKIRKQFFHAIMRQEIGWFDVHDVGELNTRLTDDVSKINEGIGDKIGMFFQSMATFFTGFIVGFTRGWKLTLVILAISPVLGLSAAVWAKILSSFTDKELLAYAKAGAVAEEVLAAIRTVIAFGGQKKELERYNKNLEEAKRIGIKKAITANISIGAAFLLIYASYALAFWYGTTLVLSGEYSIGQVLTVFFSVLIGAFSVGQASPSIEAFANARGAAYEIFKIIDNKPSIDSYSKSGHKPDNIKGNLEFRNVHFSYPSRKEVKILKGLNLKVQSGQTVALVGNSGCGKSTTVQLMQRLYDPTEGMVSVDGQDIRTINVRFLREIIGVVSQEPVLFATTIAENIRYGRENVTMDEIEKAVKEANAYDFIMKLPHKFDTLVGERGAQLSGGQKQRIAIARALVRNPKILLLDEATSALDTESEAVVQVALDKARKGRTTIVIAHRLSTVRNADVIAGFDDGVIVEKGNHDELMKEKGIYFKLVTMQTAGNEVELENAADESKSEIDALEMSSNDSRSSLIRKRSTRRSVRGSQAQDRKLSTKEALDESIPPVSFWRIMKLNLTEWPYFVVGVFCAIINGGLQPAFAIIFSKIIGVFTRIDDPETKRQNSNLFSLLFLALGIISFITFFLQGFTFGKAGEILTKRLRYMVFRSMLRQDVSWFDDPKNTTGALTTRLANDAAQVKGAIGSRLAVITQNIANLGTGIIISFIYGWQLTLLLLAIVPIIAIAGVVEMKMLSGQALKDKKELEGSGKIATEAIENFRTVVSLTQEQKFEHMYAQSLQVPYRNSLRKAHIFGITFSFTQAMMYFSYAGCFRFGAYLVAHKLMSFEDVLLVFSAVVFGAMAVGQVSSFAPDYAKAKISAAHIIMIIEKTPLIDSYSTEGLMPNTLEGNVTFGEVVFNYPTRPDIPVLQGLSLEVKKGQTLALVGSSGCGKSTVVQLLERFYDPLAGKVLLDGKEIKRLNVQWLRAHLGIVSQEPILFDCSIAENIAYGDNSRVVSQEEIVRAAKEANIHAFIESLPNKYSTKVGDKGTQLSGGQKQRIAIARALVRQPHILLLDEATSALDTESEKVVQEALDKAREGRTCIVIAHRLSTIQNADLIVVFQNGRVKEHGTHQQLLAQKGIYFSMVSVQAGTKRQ

The target in data set [1] is ABCB1 (Homo sapiens, UniProt P08183). To be noted: cited from earlier work.
The subject of data set [2] is P-gp. The following applies: male, abcb1ab(−/−) on FVB/N background versus FVB/N wild-type, mouse, sc, 11 days.
Data set [3] has as its system P-gp. The data set can be described thus: Organ and plasma concentrations of antidepressants in abcb1ab(−/−) knockout mice versus FVB/N wild-type controls (blood-organ barrier function). The following applies: 11 days s.c., FIG. 1.

Regarding Mitomycin C, the Inhibitor entry in data set [1] is given as “(x)”.

In the case of `CN(C)CCCC1(c2ccc(F)cc2)OCc2cc(C#N)ccc21` (centres unmarked) [Citalopram], in data set [2] (in vivo), the “ratio (−/−)/(+/+), cerebrum” value is recorded as 3.0; the “ratio (−/−)/(+/+), kidney” value is listed as 0.8; the “ratio (−/−)/(+/+), liver” value is 1.0; the “ratio (−/−)/(+/+), lung” value is on record as 1.0. Further, in data set [2] (in vivo), the “ratio (−/−)/(+/+), plasma” value is on record as 0.8; the “ratio (−/−)/(+/+), spleen” value was found to be 1.0; the “ratio (−/−)/(+/+), testes” value came out at 1.6. For the same compound, in data set [2] (not told), the “penetration into the brain (organ/plasma concentration ratio), times higher in animals lacking P-gp than in control animals” value is 3.7 times. The “differences in testes/plasma ratio between knockout and control” value in data set [3] was “smaller but still significant differences”.

Turning to `Cc1cc2c(s1)Nc1ccccc1N=C2N1CCN(C)CC1` [Olanzapine], the Substrate entry in data set [1] is listed as “(x)”.
